Measured values taken from the NIST ThermoML archive (doi:10.1016/j.jct.2016.08.008).

Test: activity coefficient (dimensionless); of the first substance listed, at infinite dilution; xn = mol fraction of the nth substance listed
Conditions: 101.33 kPa, Liquid, Chromatography, x1 = 0

CCCCOCCCC [dibutyl ether] + CCCCCCCCCCCCn1cc[n+](C)c1.O=S(=O)([N-]S(=O)(=O)C(F)(F)F)C(F)(F)F
Conditions | activity coefficient
318.15 K | 2.46
328.15 K | 2.51
338.15 K | 2.57
348.15 K | 2.62
358.15 K | 2.67
368.15 K | 2.71
